Data taken from US5994323A, “Pharmaceutical compositions comprising clioquinol in combination with vitamin B12 and therapeutic and prophylactic uses thereof” (priority 1997, dated 1999).

Columns and labels:
[1] = system: Aβ; assay: Resolubilization of amyloid aggregates in Alzheimer's disease brain homogenates (Western blot of supernatants); format: biochemical, human; conditions: % of the final PBS/clioquinol extract (100%=800 nM clioquinol)
[2] = system: zinc precipitated Aβ; assay: Chelating ability: washing of zinc-aggregated synthetic Aβ on nylon membrane, anti-Aβ 6E10 / ECL; format: biochemical; conditions: 10 ng synthetic Aβ aggregated with 25 μM ZnCl; wash with TBS containing 2 μM chelator; 100% for TBS alone
Method: Samples of 10 ng synthetic Aβ were placed in microtitre wells and caused to aggregate by the addition of 25 μM ZnCl. The aggregates were then transferred to a 0.2 μm nylon membrane by filtration. […] The membrane was fixed, probed with the anti Aβ monoclonal antibody 6E10 and developed for exposure to ECL-film. The transmittance of the ECL-film was measured and the relative signal strength calculated based on 100% for TBS alone.

Q: With `Oc1c(I)cc(Cl)c2cccnc12` [clioquinol, 5-chloro-7-iodo-8 hydroxyquinoline] as the molecule, how does the “Optimal concentration for solubilization of Aβ” value [1] read?
A: 10%

Q: What about the “Relative signal strength of Aβ remaining on membrane” value [2] of the same molecule?
A: 49%
